Here are results for 2 compounds from PubChem BioAssay AID504700 (The Scripps Research Institute Molecular Screening Center, 2011).

Sequences of proteins named here, by UniProt entry; tags and fusion partners are left off.
UniProt P31323, whole entry, looked up: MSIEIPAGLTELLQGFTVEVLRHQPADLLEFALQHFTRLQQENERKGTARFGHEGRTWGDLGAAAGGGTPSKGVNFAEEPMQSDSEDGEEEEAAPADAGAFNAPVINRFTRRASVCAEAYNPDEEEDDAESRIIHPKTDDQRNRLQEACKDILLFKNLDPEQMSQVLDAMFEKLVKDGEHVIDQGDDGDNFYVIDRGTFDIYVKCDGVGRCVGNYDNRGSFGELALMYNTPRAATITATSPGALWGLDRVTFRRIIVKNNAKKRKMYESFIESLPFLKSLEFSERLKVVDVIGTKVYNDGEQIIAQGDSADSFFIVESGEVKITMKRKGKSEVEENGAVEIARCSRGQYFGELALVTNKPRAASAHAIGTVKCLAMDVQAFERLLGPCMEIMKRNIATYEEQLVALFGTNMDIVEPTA

The entries are a selection whose mix differs from that of the whole data set. Activity calls are given as the source filed them.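 Rule for the calls: active = activation above a cutoff set at the mean over all compounds plus 3 SD (cut at about 18% in these data); inactive = the rest.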

This assay concerns the target cAMP-dependent protein kinase catalytic subunit beta (Homo sapiens) + cAMP-dependent protein kinase type II-beta regulatory subunit (Homo sapiens) (UniProt P22694+P31323). In words: activators of PKA-R2B holoenzyme, primary screen, biochemical, fluorescence polarization, Cy5-IP20, human (AID 504700).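 Note: higher means more holoenzyme dissociation and a rise in polarization.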 To be noted: PKA-R2B holoenzyme dissociation, at 11.4 µM, active compounds read high, 0% DMSO only, 100% 113 µM cGMP, R2B truncated from residue 108, S112A mutant.
Consider `CCC(=O)N(c1ccccc1)C1(COC)CCN(CCc2cccs2)CC1`, for which the activation is inactive: -1.69%. With `CCC(=O)N(c1ccccc1)C1(COC)CCN(CCn2nnn(CC)c2=O)CC1` the figure was inactive: 0.78%.
